The test system of the experiment is anaerobia. As to the kind of experiment: spontaneous anaerobic fermentation of flour paste sealed with rapeseed oil. The experiment is classed as cell-based. As to conditions: about 7 months spontaneous fermentation, air blocked with rapeseed oil; amounts added as.
With calcium formate, the “aqueous solution above the settled flour” value is “clear and transparent”.
Next, ferrous sulfate: “clear and transparent”; selenium dioxide: “clear and transparent”.
As to sodium formate, the “aqueous solution above the settled flour” value is “clear and transparent”.

The record behind these values is patent publication US20200121716A1, “Method for Inhibiting Both Glycolysis and Glutamine Metabolism in Cells and Use Thereof” (priority 2017, published 2020).
